By UniProt entry, the sequences of proteins in these tests, tags left out. Residues count along the entry.
UniProt P15056, 2-766 V600E limits assumed: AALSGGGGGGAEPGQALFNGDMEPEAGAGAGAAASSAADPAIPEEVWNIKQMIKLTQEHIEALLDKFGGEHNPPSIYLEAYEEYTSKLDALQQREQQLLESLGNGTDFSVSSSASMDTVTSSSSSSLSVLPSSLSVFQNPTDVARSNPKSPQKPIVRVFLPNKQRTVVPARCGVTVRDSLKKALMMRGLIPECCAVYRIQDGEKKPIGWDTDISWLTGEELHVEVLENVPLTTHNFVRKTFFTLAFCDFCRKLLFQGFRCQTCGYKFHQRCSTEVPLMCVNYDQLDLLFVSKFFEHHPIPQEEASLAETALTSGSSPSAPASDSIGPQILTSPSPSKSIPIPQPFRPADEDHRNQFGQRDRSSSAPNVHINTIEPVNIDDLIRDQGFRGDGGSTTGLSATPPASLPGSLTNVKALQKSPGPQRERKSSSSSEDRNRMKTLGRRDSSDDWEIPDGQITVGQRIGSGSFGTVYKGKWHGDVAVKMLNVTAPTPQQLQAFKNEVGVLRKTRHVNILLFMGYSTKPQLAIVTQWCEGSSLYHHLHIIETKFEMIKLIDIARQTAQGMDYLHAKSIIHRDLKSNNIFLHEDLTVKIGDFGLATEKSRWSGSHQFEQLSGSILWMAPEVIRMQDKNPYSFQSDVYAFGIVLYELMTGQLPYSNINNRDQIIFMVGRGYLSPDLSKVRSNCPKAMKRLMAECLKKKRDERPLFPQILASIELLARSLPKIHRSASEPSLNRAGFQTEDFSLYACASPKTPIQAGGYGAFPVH
UniProt P04049, whole entry Y340D/Y341D: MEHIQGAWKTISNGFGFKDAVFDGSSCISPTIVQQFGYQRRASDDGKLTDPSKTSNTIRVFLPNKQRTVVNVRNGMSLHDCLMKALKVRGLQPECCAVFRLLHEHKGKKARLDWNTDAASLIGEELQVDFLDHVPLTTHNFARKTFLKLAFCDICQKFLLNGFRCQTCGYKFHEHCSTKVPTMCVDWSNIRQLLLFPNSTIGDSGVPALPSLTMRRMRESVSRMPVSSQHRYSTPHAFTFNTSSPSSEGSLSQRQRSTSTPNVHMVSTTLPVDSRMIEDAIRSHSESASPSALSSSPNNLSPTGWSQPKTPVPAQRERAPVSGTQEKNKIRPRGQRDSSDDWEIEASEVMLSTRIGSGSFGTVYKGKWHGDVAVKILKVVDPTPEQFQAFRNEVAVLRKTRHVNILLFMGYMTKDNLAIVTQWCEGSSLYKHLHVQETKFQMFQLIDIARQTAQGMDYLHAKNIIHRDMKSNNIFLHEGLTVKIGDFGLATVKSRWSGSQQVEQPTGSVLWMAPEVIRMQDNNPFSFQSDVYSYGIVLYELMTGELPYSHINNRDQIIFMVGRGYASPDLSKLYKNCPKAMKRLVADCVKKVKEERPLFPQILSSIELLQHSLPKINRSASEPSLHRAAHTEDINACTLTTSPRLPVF

In ChEMBL document CHEMBL3886567, “Fused tricyclic compounds as Raf kinase inhibitors” (2016):

What was measured:
[1] = target: Serine/threonine-protein kinase B-raf (Homo sapiens, UniProt P15056, V600E); assay: (§1) Raf IC50 Assay: Compounds disclosed herein were tested against B-Raf (V600E) (PV3849, from Invitrogen) or C-Raf (Y340D/Y341D) (PV3805, from Invitrogen) in a time-resolved fluorescence energy transfer assay. The assay was carried out in reactions (10 uL) containing 0.0625 nM B-Raf or 0.5 nM C-Raf, 25 mM Tris pH7.4, 10 mM MgCl2, 0.5 mM EGTA, 0.5 mM […], 5 mM beta-glycerophosphate, 0.01% Triton X-100, 2.5 mM DTT, 0.1% BSA, 0.1 mM ATP, 13.7 nM GST-tagged MEK1 (Full-length protein with K97R mutation, recombinant protein purified from bacterial expression system) and 0-5 uM compounds disclosed herein (final concentration of 1% DMSO). The enzyme was incubated with the compounds at room temperature for 60 minutes and the reactions were initiated by the addition of ATP and GST-MEK1. After incubating at room temperature for 60 minutes, an equal volume of stop buffer containing 25 mM Tris pH7.4, 400 mM KF, 50 mM EDTA, 0.01% BSA, 0.01% Triton X-100, 1 test of Eu3+ Cryptate-conjugated rabbit polyclonal antibody anti-Phospho MEK1/2 (Ser217/221) and 1 test of d2-conjugated mouse monoclonal antibody anti-glutathione S-transferase was added to stop the reactions. Plates were sealed and incubated at room temperature for 2 hours, and then the TR-FRET signals were read on BMG PHERAstar FS instrument. The IC50 for each compound was calculated by non linear regression by Graphpad Prism software.
[2] = target: RAF proto-oncogene serine/threonine-protein kinase (Homo sapiens, UniProt P04049, Y340D/Y341D); assay: as §1

O=C1CCc2c(Oc3ccc4c(c3)C3C(O4)C3c3nc4cc(Cl)c(C(F)(F)F)cc4[nH]3)ccnc2N1 (racemic)
IC50 [1]: 19 nM

O=C1CCc2c(Oc3ccc4c(c3)C3C(O4)C3c3nc4cc(Cl)c(Cl)cc4[nH]3)ccnc2N1 (racemic)
IC50 [2]: 4.9 nM
